Assay results published in ChEMBL document CHEMBL5154816, “Structure-Based Discovery and Optimization of Furo[3,2-c]pyridin-4(5H)-one Derivatives as Potent and Second Bromodomain (BD2)-Selective Bromo and Extra Terminal Domain (BET) Inhibitors” (J Med Chem, 2022).

By UniProt entry, the sequences of proteins in these tests, tags left out.
UniProt Q15059, whole entry, looked up: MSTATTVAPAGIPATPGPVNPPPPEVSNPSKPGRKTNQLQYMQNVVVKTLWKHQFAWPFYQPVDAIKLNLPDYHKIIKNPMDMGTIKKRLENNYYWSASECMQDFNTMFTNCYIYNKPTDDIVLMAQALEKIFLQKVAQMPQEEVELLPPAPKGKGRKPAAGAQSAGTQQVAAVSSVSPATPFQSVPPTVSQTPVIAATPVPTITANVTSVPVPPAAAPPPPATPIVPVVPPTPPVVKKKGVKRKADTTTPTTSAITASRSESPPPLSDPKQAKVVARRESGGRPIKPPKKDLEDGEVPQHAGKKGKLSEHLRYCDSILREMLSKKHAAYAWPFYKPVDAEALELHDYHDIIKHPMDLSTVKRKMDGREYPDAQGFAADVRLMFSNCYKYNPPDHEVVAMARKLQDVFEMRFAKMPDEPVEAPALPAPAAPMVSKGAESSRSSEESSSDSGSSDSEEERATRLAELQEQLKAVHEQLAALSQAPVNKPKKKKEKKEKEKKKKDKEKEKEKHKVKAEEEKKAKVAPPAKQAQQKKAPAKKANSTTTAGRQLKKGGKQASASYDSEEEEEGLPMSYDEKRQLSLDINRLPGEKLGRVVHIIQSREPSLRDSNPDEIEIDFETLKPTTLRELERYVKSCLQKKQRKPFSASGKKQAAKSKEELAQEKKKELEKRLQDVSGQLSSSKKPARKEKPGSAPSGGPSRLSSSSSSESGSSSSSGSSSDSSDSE
UniProt P21675, whole entry: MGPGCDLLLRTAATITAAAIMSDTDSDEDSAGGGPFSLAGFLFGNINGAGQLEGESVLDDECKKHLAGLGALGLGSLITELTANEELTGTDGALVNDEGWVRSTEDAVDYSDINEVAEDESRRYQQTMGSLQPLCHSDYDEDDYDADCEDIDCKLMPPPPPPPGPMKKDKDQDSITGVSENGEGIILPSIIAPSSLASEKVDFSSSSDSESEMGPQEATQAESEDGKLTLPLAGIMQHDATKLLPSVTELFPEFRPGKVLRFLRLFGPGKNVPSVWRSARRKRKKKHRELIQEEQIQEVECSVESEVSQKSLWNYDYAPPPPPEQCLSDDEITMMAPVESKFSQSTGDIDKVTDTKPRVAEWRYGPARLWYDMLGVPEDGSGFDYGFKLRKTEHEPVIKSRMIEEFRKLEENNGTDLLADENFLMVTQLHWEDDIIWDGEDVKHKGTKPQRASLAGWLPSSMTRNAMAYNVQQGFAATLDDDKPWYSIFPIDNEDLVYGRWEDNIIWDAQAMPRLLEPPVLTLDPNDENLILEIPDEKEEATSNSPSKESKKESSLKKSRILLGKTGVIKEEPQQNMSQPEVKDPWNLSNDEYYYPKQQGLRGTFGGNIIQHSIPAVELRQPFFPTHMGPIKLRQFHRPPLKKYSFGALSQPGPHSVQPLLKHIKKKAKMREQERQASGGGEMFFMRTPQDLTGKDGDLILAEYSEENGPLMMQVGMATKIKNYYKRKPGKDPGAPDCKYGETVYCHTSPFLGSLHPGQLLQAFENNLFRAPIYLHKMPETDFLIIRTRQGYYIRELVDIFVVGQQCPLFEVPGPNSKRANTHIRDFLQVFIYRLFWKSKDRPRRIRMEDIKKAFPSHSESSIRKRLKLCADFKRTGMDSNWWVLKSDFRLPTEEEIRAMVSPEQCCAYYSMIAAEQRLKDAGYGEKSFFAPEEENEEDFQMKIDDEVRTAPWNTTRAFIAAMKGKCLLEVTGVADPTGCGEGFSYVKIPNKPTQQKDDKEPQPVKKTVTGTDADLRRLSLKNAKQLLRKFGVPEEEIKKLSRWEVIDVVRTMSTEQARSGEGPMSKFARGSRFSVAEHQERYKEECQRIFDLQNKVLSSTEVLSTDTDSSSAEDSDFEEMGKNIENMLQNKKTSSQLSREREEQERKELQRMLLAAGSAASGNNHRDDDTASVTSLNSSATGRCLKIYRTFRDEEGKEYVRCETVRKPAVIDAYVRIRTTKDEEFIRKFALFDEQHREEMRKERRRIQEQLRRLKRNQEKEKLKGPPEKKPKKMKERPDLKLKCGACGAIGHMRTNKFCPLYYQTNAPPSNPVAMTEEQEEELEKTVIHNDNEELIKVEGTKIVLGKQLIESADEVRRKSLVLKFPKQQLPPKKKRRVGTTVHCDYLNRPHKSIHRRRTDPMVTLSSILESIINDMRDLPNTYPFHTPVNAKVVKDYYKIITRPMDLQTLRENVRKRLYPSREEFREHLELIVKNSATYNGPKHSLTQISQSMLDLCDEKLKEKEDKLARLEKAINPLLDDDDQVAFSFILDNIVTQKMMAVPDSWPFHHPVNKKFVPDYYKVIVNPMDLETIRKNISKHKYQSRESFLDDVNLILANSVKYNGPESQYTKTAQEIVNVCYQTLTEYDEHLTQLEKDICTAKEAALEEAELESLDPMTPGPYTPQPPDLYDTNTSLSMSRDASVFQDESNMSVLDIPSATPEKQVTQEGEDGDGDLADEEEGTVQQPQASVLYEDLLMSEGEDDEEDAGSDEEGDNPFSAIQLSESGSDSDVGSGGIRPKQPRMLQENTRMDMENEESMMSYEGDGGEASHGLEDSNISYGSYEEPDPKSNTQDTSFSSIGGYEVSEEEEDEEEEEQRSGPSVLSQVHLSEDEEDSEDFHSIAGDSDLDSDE

Key:
[1] = biological target: Bromodomain-containing protein 3 (Homo sapiens, UniProt Q15059); test: Binding affinity to His6-fused BRD3 BD1 (unknown origin) assessed as change in melting temperature at 100 uM incubated for 30 mins by thermal shift assay
[2] = biological target: Transcription initiation factor TFIID subunit 1 (Homo sapiens) (UniProt P21675); test: Binding affinity to TAF1 BD2 (unknown origin) assessed as change in melting temperature at 100 uM incubated for 30 mins by thermal shift assay

ΔTm [1]: 2.75 °C | ΔTm [2]: -0.5 °C
Compound: Cc1cc(F)cc(C)c1Oc1ccc(C(C)(C)O)cc1-c1cn(C)c(=O)c2cc(-c3cnc(C4CCCC4)[nH]3)oc12
